# Entries after “also recorded” stand apart in the source; their conditions may differ.
# Experiment: Microscopic investigation of BBB permeability and pharmacokinetics in normal mice
# Type: in vivo
# Conditions: iv
# Description: Normal mice were injected intravenously with 100 μg/100 μl of peptide OR6 and 50 μg/200 μl of peptide 5 or PBS solution (n=2 for each group). Animals injected with OR6 were sacrificed after 5, 15, 30 and 60 min, whilst mice injected with OR5 were sacrificed after 5, 10, 15, 20 and 30 min. The whole brains, kidney and liver were removed. The tissues were fixed in 10% formaldehyde in phosphate buffer (PB) for over night at room temperature (RT) and next day were then transferred to 30% sucrose in PB and incubated for another over night at 4° C. The brains were then cut into 70-mm frozen sections using a cryostat. Brain slices were washed with PBS before incubated with 3% hydrogen peroxide (in 50% ethanol) for 30 min at RT. After washing with PBS, the sections were incubated with Extravidin peroxidase (1:500 in PBS containing 0.3% triton) and incubated for 1 hr at RT, prior to washing with PBS (2 changes over 5 min) and the last wash in PB. DAB (3,3′ diaminobenzidine tetrahydrochloride) is applied for 15 min, before washing 3× in PB for 5 min. The sections were placed on gelatin coated slides and left to dry overnight. Next day the slides were hydrated in water for 3 min and then dehydrated for 5 min in each of: 50% ethanol, 70% ethanol, 95% ethanol, 100% ethanol (2×) and xylene (2×). Slides were then mounted in DPX-xylene for viewing under the microscope.
substance,measurement,value
Gd-DOTA-r-Sar-vva-Sar-K(biotin)-butadiamine [OR6],staining / clearance in the cerebellum at 1 hr post-injection,started to be fainter; also recorded: might be getting cleared from the cerebellum

# From US8613905B2, “Diagnostic agent” (United Arab Emirates University, priority 2007, dated 2013)
